Results: the NIST ThermoML archive (doi:10.1016/j.fluid.2016.02.004)

Assay: activity coefficient (dimensionless); of the first substance listed, at infinite dilution; xn = mol fraction of the nth substance listed
Conditions: Liquid, Chromatography, x1 = 0

CCCCOCCCC [dibutyl ether] + CCCCn1cc[n+](C)c1.N#CN=C=[N-]
Conditions	activity coefficient
318.15 K	47.4
328.15 K	46.4
338.15 K	45.5
348.15 K	44.6
358.15 K	43.9
368.15 K	43.1
